Laboratory results reported in PMC9893515 (Bioorganic chemistry, 2021).

Biological target: T1, recombinant human TDP2 (Homo sapiens, UniProt O95551)
T1 sequence (O95551 1-362): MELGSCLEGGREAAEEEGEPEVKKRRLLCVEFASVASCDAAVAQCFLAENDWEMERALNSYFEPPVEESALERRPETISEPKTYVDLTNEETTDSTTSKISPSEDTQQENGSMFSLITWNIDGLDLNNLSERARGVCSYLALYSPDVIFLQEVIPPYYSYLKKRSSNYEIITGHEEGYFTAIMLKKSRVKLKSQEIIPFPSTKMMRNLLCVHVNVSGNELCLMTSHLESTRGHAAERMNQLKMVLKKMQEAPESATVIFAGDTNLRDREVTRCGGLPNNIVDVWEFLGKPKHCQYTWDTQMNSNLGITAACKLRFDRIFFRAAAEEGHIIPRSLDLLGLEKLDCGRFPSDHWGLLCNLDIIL
Test: Recombinant TDP2 assay
Type: biochemical
Conditions: read-out: TDP2 inhibitory activity IC50, mean ± SD from at least three independent experiments
Procedure, shortened: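 Human recombinant TDP2 (25 pM) with 1 nM 18-mer 5'-phosphotyrosyl ssDNA, 3'-α32P-cordycepin-labelled. Reaction ran 15 min at room temperature in Tris-HCl pH 7.5, KCl, MgCl2, EDTA, DTT, BSA and Tween 20. Stopped with formamide loading buffer, then 16% denaturing PAGE and phosphorimaging densitometry of product. Test compounds at 3-fold dilutions, 111 to 0.46 or 0.051 μM; deazaflavin positive control. IC50 is 50% enzyme inhibition.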

IC50: > 111 µM
Substance: Ethyl-2-(hydroxymethyl)-4,9-dioxo-4,9-dihydrofuro[2,3-g]quinoline-3-carbo-xylate [Compound 48]
